pIC50: −log10 of the molar value.
Experiments:
MDA-MB-231 = experiment: cells; conditions: Homo sapiens, MDA-MB-231, 24 h
MDA-MB-468 = experiment: Antiproliferative activity against human MDA-MB-468 cells incubated for 24 hrs by MTT assay; type: functional, cell-based; conditions: MDA-MB-468, 24 h

## Cc1sc2c(c1C)C(c1ccc(Cl)cc1)=N[C@@H](CC(=O)OC(C)(C)C)c1nnc(C)n1-2
MDA-MB-231
  pIC50: 4.53
MDA-MB-468
  pIC50: 4.52

Source: ChEMBL document CHEMBL5053557, “Discovery of Novel Dual-Target Inhibitor of Bromodomain-Containing Protein 4/Casein Kinase 2 Inducing Apoptosis and Autophagy-Associated Cell Death for Triple-Negative Breast Cancer Therapy” (J Med Chem, 2021)
